# Assay results as given in patent US4581451A, “Preparation of di- and tri-substituted xanthine compounds” (priority 1980, dated 1986).
# Read-outs that look alike come from different tables or passages of the source.
# Tests used:
# in vivo [1] = conditions: mouse, po, solution in DMSO
# in vivo [2] = conditions: rat, po, solution in DMSO
# Excerpt: (b) Determination of the acute toxicity LD 50 in male and female rats in solution is DMSO (reference DMSO alone) in accordance with C.
compound,measurement,setting,value
"C=CCn1c(=O)c2[nH]c(C)nc2n(CCCC)c1=O [Example 1, 1-allyl-3-butyl-8-methyl xanthine]",LD50,"in vivo [1]; female, read-out: LD 50, mice female",62 mg/kg
same,LD50,"in vivo [1]; male, read-out: LD 50, mice male",72 mg/kg
same,LD50,"in vivo [2]; female, read-out: LD 50, rats female",24 mg/kg
same,LD50,"in vivo [2]; male, read-out: LD 50, rats male",35 mg/kg
